Data set [1] can be described thus: Solubility in water / aqueous solubility of HPPs and parent drugs. The note with it: product as prepared in Example 1.
A short description of data set [2]: Plasma levels after transdermal administration to hairless mice. In kind it is in vivo.
For the next data set, the system named is human skin tissue. The conditions noted are these: pH 7.4.
A further data set has as its system rat. The note with it: in vivo.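 Also: acute toxicity in rats expressed as LD50, determined for both prodrugs and their parent compounds.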

As for “dipropylaminoethyl 2[(2,6-dichlorophenyl)amino] benzene acetate.AcOH”, the Solubility in water in data set [1] worked out at 300 mg/mL.

As to “α-methyl-(p-chlorobenzoyl)-5-methoxy-2-methylindole 3-acetic acid [reference compound]”, in data set [2] (parent compound administered (time when taken orally)), the “t, time to peak plasma level after parent compound” value was in the range of 2 to 4 h. Further, in data set [2] (parent compound administered, hairless mice), the “Peak plasma concentration after parent compound” value was determined as 10 mg/L.

Turning to “8-chloro-(4-N,N-dimethylaminobutyryloxy-pyridine-2-ylamino-methylidene)-3-methyl-2,2-dioxo-2λ^6,7-dithia-3-azabicyclo[4,3,0]nona-8,10-dien-5-one.HCl”, in data set [2] (mouse, in vivo), the “Peak plasma concentration of parent compound after prodrug compound” value stood at 20 mg/L and the “t, time to peak plasma level of parent compound after prodrug compound” value is on record as 50 min. For the same substance, the “In vitro penetration rate (apparent flux), prodrug compounds” value in the data set on human skin tissue is given as 1700 μg/cm^2/h. For the same substance, in the data set with rat, the “LD50 of HPP” value was 610 mg/kg.
